According to article PMC3049920 (Journal of immunology (Baltimore, Md. : 1950), 2010):

Tested on: B16 melanoma tumors
Experiment: B16 melanoma tumors in C57BL/6 mice
Format: in vivo, mouse
Conditions: bid

## interleukin-2 [IL-2]
1 × 10^5 IU
  effect on B16 tumor growth: little effect
C57BL/6 mice, 3 × 10^5 IU, 5d/wk, ip
  growth inhibition of B16 tumors: ~ 61%
